From US11077120B2, “Prostaglandin receptor EP2 antagonists, derivatives, compositions, and uses related thereto” (Emory University, priority 2014, dated 2021)

By UniProt entry, the sequences of proteins in these tests, tags left out.
UniProt P43116, whole entry: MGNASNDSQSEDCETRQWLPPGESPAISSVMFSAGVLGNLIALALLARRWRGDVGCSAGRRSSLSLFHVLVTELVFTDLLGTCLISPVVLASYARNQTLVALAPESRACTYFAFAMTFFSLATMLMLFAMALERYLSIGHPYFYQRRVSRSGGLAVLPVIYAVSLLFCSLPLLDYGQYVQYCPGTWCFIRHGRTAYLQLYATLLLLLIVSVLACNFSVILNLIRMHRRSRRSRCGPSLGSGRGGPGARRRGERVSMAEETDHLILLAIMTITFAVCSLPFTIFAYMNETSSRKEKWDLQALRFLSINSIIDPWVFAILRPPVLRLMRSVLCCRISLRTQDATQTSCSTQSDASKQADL
UniProt Q13258, whole entry: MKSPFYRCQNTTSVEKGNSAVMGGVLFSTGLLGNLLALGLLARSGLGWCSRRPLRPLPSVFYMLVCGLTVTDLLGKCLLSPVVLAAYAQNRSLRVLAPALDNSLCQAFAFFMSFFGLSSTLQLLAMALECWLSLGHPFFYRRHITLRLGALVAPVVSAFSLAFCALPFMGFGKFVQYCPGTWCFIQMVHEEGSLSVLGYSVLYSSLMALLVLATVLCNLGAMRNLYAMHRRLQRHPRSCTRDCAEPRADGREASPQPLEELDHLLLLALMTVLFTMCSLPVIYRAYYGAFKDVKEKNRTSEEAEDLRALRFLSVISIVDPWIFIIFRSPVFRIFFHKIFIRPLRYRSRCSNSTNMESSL
UniProt P43119, whole entry: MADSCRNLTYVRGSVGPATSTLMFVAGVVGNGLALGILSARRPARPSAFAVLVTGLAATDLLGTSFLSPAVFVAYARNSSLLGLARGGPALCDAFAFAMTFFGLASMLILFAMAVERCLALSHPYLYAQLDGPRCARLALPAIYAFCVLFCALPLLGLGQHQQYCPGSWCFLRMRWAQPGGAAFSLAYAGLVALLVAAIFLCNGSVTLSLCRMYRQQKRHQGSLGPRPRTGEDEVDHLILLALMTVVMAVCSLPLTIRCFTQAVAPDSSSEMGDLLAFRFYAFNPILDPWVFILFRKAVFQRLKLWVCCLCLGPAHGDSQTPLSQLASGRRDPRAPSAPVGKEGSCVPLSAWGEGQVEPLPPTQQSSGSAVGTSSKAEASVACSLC

Experiments:
human EP2 receptors = human EP2 receptors (Homo sapiens, UniProt P43116); test: cell-based cAMP TR-FRET assay, rightward shift of PGE2 concentration response curve (Schild KB), EP2
[1] = liver microsomal stability, mouse
human DP1 receptors = human DP1 receptors (Homo sapiens, UniProt Q13258); test: cell-based cAMP TR-FRET assay, DP1 (agonist BW245C); conditions: read-out: DP1 KB; Table 3; single compound concentration of 10 μM
human IP receptors = human IP receptors (Homo sapiens, UniProt P43119); test: cell-based cAMP TR-FRET assay, IP (agonist iloprost); conditions: read-out: KB IP; Table 4
[2] = liver microsomal stability, human
[3] = read-out: EP2 KB, Table 3, Schild KB from single concentration 1 μM

Kb (human EP2 receptors; [3]): > 1000 nM
SMILES: COc1ccc(CCNC(=O)CCn2c(C)cc3ccccc32)cc1OC

% of Parent Compound Remaining at 60 min vs. T = 0 min, Mouse Liver Microsomes ([1]; 1 μM): 18.3%
% of Parent Compound Remaining at 60 min vs. T = 0 min, Mouse Liver Microsomes ([1]; 10 μM): 13.0%
Kb (human DP1 receptors): 210 nM
Kb (human IP receptors): 22.5 µM
% of Parent Compound Remaining at 60 min vs. T = 0 min, Human Liver Microsomes ([2]; 1 μM): 20.9%
% of Parent Compound Remaining at 60 min vs. T = 0 min, Human Liver Microsomes ([2]; 10 μM): 24.0%
SMILES: Cc1cc(/C=C/C(=O)NCCn2c(C)cc3ccccc32)cc(C)c1F

Kb (human EP2 receptors; [3]): > 1000 nM
SMILES: COc1ccc(CCNC(=O)/C=C/c2cc(OC)c(OC)c(OC)c2)cc1OC

Kb (human EP2 receptors; [3]): 410 nM
SMILES: COc1cc(C(N)CC(=O)NCCn2c(C)cc3ccccc32)cc(OC)c1OC (stereo not drawn)

Kb (human EP2 receptors; [3]): 667 nM
SMILES: COc1ccc(CCCNC(=O)/C=C/c2cc(OC)c(OC)c(OC)c2)cc1

Kb (human EP2 receptors; [3]): > 1000 nM
SMILES: COc1cc(/C=C/C(=O)NCc2c(C)n(C)c3ccccc23)cc(OC)c1OC

Kb (human EP2 receptors; [3]): 236 nM
SMILES: Cc1cc2ccccc2n1CCNC(=O)C1CC1c1ccc(F)cc1 (stereo not drawn)

% of Parent Compound Remaining at 60 min vs. T = 0 min, Mouse Liver Microsomes ([1]; 1 μM): 0%
% of Parent Compound Remaining at 60 min vs. T = 0 min, Mouse Liver Microsomes ([1]; 10 μM): 0.2%
Kb (human DP1 receptors): 110 nM
Kb (human IP receptors): 12.7 µM
% of Parent Compound Remaining at 60 min vs. T = 0 min, Human Liver Microsomes ([2]; 1 μM): 0.8%
% of Parent Compound Remaining at 60 min vs. T = 0 min, Human Liver Microsomes ([2]; 10 μM): 5.8%
SMILES: COc1cc(/C=C/C(=O)NCCc2c(C)[nH]c3ccccc23)cc(OC)c1OC

EP2 activity (in words) (human EP2 receptors): complete loss of activity
Kb (human EP2 receptors; [3]): > 1000 nM
SMILES: COc1cc(/C=C/C(=O)OCCN2CCCCC2C)cc(OC)c1OC (stereo not drawn)

Kb (human IP receptors): 95.9 µM
SMILES: COc1cc(/C=C/C(=O)NCCn2c(C(F)(F)F)cc3ccccc32)cc(OC)c1OCCO

Kb (human EP2 receptors; [3]): > 1000 nM
SMILES: COC(=O)[C@@H](Cc1c(C)[nH]c2ccccc12)NC(=O)/C=C/c1cc(OC)c(OC)c(OC)c1

% of Parent Compound Remaining at 60 min vs. T = 0 min, Mouse Liver Microsomes ([1]; 1 μM): 0.2%
% of Parent Compound Remaining at 60 min vs. T = 0 min, Mouse Liver Microsomes ([1]; 10 μM): 0.1%
Kb (human DP1 receptors): 255 nM
Kb (human IP receptors): 42.7 µM
% of Parent Compound Remaining at 60 min vs. T = 0 min, Human Liver Microsomes ([2]; 1 μM): 12.4%
% of Parent Compound Remaining at 60 min vs. T = 0 min, Human Liver Microsomes ([2]; 10 μM): 18.6%
Kb (human EP2 receptors; [3]): 4.9 nM
Kb (human EP2 receptors; read-out: KB EP2, Table 4): 4.9 nM
SMILES: COc1ccc(/C=C/C(=O)NCCc2c(C)[nH]c3ccccc23)cc1OC

Kb (human EP2 receptors; [3]): 340 nM
SMILES: COc1cc(/C=C/C(=O)OCCn2c(C)cc3ccccc32)cc(OC)c1OC

% of Parent Compound Remaining at 60 min vs. T = 0 min, Mouse Liver Microsomes ([1]; 1 μM): 0.1%
% of Parent Compound Remaining at 60 min vs. T = 0 min, Mouse Liver Microsomes ([1]; 10 μM): 51.7%
Kb (human DP1 receptors): 900 nM
Kb (human IP receptors): 21.7 µM
% of Parent Compound Remaining at 60 min vs. T = 0 min, Human Liver Microsomes ([2]; 1 μM): 0.4%
% of Parent Compound Remaining at 60 min vs. T = 0 min, Human Liver Microsomes ([2]; 10 μM): 21.4%
Kb (human EP2 receptors; [3]): 11.3 nM
Kb (human EP2 receptors; read-out: KB EP2, Table 4): 11.3 nM
SMILES: Cc1cc(/C=C/C(=O)NCCc2c(C)[nH]c3ccccc23)cc(C)c1F

Kb (human EP2 receptors; [3]): > 1000 nM
SMILES: COc1cc(/C=C/C(=O)NCc2nn(C)c3ccccc23)cc(OC)c1OC

Kb (human EP2 receptors; [3]): > 1000 nM
SMILES: COC(=O)[C@H](Cc1c(C)[nH]c2ccccc12)NC(=O)/C=C/c1cc(OC)c(OC)c(OC)c1

Kb (human EP2 receptors; [3]): 333 nM
SMILES: COc1cc(/C=C/C(=O)NCCc2c(C)oc3ccccc23)cc(OC)c1OC

Kb (human DP1 receptors): 19.9 nM
Kb (human IP receptors): 85 µM
mechanism of antagonism of EP2 (human EP2 receptors; Schild regression analysis): competitive
Kb (human EP2 receptors; [3]): 3.7 nM
Kb (human EP2 receptors; read-out: KB EP2, Table 4): 3.7 nM
SMILES: COc1cc(/C=C/C(=O)NCCn2c(C)cc3ccccc32)cc(OC)c1OCCO

Kb (human EP2 receptors; [3]): > 1000 nM
SMILES: COc1cc(/C=C/C(=O)NCCN2C(=O)Cc3ccccc32)cc(OC)c1OC

Read-outs that look alike come from different tables or passages of the source. One block for each compound: values may come before it.
